For the assay, the target named is Focal adhesion kinase 1 (Homo sapiens, UniProt Q05397). As to the kind of experiment: Inhibition of human recombinant FAK.

Sequences of proteins named here, by UniProt entry; tags and fusion partners are left off.
UniProt Q05397, whole entry: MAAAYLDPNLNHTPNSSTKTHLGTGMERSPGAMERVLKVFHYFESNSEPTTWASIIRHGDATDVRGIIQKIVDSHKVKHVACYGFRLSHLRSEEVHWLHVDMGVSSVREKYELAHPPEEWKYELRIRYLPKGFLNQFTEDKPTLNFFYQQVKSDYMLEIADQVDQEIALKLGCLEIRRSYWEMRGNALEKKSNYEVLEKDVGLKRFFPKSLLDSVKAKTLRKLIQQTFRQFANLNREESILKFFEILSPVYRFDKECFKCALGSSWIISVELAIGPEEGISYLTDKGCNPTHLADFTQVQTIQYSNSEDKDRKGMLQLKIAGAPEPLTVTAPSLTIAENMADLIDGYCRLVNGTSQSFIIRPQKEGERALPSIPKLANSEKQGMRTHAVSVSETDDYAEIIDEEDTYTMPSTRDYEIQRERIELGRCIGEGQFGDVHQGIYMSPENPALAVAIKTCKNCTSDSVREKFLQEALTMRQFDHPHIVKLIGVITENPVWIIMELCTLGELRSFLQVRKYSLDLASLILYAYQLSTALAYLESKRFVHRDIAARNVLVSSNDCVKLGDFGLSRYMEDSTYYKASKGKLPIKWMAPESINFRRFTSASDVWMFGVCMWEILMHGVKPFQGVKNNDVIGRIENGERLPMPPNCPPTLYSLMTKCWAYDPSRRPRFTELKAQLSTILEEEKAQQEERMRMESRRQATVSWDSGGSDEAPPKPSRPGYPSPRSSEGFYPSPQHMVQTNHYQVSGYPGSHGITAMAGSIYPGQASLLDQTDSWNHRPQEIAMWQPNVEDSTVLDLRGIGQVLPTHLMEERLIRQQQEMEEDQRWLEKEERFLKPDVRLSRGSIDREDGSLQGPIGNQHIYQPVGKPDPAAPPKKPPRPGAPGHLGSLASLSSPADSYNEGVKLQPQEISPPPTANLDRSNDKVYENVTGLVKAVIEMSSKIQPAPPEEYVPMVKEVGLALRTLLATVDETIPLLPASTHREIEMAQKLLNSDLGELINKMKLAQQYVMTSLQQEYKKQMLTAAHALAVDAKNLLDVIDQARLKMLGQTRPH

Among the data in ChEMBL document CHEMBL1157465, “Design, synthesis, and biological evaluation of novel 3-aryl-4-(1H-indole-3yl)-1,5-dihydro-2H-pyrrole-2-ones as vascular endothelial growth factor receptor (VEGF-R) inhibitors” (J Med Chem, 2008) are IC50 values, retold here.

For orientation: IC50 means the concentration at which inhibition is half-maximal. `COc1cc(C2=C(c3cn(COCc4ccccc4)c4ccccc34)CNC2=O)cc(OC)c1OC`: the IC50 was 40 µM.
